Assay results as given in patent publication US20230365568A1.
Read-outs that look alike come from different tables or passages of the source. Marks after values point to notes of the source that are not given here.

Amino acid sequences for entries named in this document (tags omitted).
UniProt P53350, whole entry: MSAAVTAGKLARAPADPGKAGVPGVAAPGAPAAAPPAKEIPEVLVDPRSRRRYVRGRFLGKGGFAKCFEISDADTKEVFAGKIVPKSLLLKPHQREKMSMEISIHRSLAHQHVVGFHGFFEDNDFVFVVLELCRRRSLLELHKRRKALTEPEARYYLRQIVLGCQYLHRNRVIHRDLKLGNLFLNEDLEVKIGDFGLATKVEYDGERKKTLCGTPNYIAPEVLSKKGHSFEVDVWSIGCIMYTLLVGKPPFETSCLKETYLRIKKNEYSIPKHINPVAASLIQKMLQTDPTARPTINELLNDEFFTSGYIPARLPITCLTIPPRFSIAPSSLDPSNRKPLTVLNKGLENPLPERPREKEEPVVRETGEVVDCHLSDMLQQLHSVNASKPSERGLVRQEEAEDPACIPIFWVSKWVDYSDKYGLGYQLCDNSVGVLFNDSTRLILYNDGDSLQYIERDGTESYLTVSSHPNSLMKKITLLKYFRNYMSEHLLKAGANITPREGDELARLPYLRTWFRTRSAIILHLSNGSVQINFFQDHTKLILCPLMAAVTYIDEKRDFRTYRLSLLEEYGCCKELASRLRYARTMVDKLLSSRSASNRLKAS

Tests used:
[1] = data from Alverez et al., 2020, cited from earlier work
[2] = data from Alverez et al., 2020, cited from earlier work; remark: listed apart in the source
[3] = data from Alverez et al., 2020, cited from earlier work; remark: listed apart in the source
[4] = molecular target: full-length human Plk1 (Homo sapiens (Human), UniProt P53350); test: ELISA-based Plk1 PBD-binding inhibition assay; conditions: read-out: IC50 ± sd (μM, ELISA), at least three independent experiments

SMILES | t1/2 (min, RLM) ([1]; tested form: TFA) | PAMPA ([2]; tested form: TFA) [×10⁻⁶ cm/s] | Solub. ([3]; tested form: TFA) [µg/mL] | further results
N#Cc1ccc(CC(=O)NCCCn2c(=O)c3cc(F)ccc3n3c(=S)[nH]nc23)cc1 | >30 min | 172 | 2.0 | –
O=c1c2cc(F)ccc2n2c(=S)[nH]nc2n1CC1CC1 [compound 79] | >30 min | 46.0 | 16.2 | –
O=C(Cc1ccc(O)cc1)NCCCn1c(=O)c2cc(F)ccc2n2c(=S)[nH]nc12 [compound 127] | >30 min | – | 31.0 | –
O=c1c2cc(F)ccc2n2c(=S)[nH]nc2n1CCc1ccncc1 [compound 85] | >30 min | – | 10.9 | –
CCCn1c(=O)c2cc(F)ccc2n2c(=S)[nH]nc12 [compound 64] | – | – | – | t1/2 (min, RLM) [1]: >30 min; PAMPA [2]: 195 ×10⁻⁶ cm/s; Solub. [3]: >28 µg/mL
O=C(Cc1ccc(I)cc1)NCCCn1c(=O)c2cc(F)ccc2n2c(=S)[nH]nc12 | – | – | – | IC50 [4]: 2.4 µM
O=c1c2ccccc2n2c(=S)[nH]nc2n1CCC(F)(F)F [compound 27] | >30, min | 82 | 23.3 | –
NCCCn1c(=O)c2cc(F)ccc2n2c(=S)[nH]nc12 [compound 68] | – | – | – | t1/2 (min, RLM) ([1]; Free base, tested form: TFA): >30^c >30^d min; t1/2 (min, RLM) ([1]; TFA salt, tested form: TFA): >30^c >30^d min; PAMPA ([2]; Free base, tested form: TFA): 16.8 ×10⁻⁶ cm/s; PAMPA ([2]; TFA salt, tested form: TFA): < 1 ×10⁻⁶ cm/s; Solub. ([3]; Free base, tested form: TFA): 27 µg/mL; Solub. ([3]; TFA salt, tested form: TFA): > 43 µg/mL
COc1cccc(CC(=O)NCCCn2c(=O)c3cc(F)ccc3n3c(=S)[nH]nc23)c1 | – | 300 | >65 | –
CCCn1c(=O)c2ccccc2n2c(=S)[nH]nc12 [compound 21] | – | – | – | t1/2 (min, RLM) [1]: >30 min; PAMPA [2]: 37.0 ×10⁻⁶ cm/s; Solub. [3]: 21.3 µg/mL
O=c1c2cccc(F)c2n2c(=S)[nH]nc2n1CCc1ccccc1 | >30 min | 141 | 3.4 | –
O=c1c2cc(F)ccc2n2c(=S)[nH]nc2n1CCC(F)(F)F [compound 65] | >30 min | 117 | 17.3 | –
O=C(Cc1ccc(N=C=S)cc1)NCCCn1c(=O)c2cc(F)ccc2n2c(=S)[nH]nc12 | – | – | – | IC50 [4]: 1.4 µM
